Reference: patent publication US20130040903A1, “PHARMACEUTICAL COMPOSITIONS FOR TREATING DEPRESSION AND ANXIETY” (priority 2007, published 2013)

Tested on: 5-HT
Experiment: Unpredictable long-term stimulus model: 5-HT content in the rat cerebral cortex (HPLC-electrochemical test)
Assay type: in vivo
Settings: Experiment 9, 2 mg/kg/d 24 days
Experimental: 9.4.1 Group division and administration of drug: The rats are grouped randomly into 6 groups. 1. False therapy group; 2. model group (control); 3. high dose of Embodiment 4 (60 mg/kg/d); 4. middle dose of Embodiment 4 (30 mg/kg/d); 5. low dose of Embodiment 4 (15 mg/kg/d); and 6. Paroxetine (2 mg/kg/d). The test drugs and the positive drug are prepared with 0.5% of CMC-Na for feeding into the stomach once every day.
Unpredictable long-term stimulus model: The rats in the control group eat and drink normally, and there is no stimulus performed. In other 5 groups, one rat is fed in each cage, and the rat is subject to the 24-day unpredictable stress/stimulus, including 24-hour abstinence for 3 times, 24-hour without drinking for 3 times, 24-hour wet bedding for 3 times (200 ml of water is added in the rat cage), overnight illumination for 3 times, swimming at 4° C. for 5 minutes for 3 times, heating at 45° C. in the oven for 5 minutes for 3 times, clipping the rat tail for 1 minute for 3 times, and 30-minute high-speed horizontal shake for 3 times. One stimulus is performed randomly every day and a total of 24 days. Each stimulus cannot be performed continuously. The pharmaceutical is fed into the rat's stomach once every day and a total of 24 days.
9.5.6 HPLC-electrochemical test: The amounts of norepinephrine and 5-hydrotryptamine in the rat cerebral cortex are measured.

Fc1ccc([C@@H]2CCNC[C@H]2COc2ccc3c(c2)OCO3)cc1 [Paroxetine]
5-HT: 227.0637 ± 46.54 nmol/L brain tissue extracts
